Experimental data as given in patent US5766848A (Synaptic Pharmaceutical Corporation, priority 1994, dated 1998).

Chains of the proteins cited; added tags and fusions are not shown. Lines headed by an entry give the natural chain unless they say otherwise; changes in a name come on top.
UniProt P48065: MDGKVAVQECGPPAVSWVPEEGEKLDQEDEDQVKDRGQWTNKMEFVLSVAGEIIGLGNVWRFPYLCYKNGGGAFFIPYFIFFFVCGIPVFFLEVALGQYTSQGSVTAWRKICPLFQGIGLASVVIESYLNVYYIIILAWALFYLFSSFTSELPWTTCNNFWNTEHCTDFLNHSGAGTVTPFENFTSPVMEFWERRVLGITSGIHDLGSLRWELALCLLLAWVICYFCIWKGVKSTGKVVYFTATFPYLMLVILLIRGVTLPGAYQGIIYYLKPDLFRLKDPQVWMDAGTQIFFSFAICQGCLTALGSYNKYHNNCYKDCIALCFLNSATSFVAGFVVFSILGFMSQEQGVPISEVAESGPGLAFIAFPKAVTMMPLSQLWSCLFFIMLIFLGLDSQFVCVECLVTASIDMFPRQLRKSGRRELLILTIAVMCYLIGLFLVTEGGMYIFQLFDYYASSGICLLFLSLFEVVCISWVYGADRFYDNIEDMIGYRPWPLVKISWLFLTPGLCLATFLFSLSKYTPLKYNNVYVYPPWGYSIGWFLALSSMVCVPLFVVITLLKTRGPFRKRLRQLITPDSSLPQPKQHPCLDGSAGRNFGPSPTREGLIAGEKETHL

What was measured:
rat GAT-2 = target: T1, rat GAT-2 (Rattus norvegicus, UniProt P31646)
T1 sequence (P31646 1-602): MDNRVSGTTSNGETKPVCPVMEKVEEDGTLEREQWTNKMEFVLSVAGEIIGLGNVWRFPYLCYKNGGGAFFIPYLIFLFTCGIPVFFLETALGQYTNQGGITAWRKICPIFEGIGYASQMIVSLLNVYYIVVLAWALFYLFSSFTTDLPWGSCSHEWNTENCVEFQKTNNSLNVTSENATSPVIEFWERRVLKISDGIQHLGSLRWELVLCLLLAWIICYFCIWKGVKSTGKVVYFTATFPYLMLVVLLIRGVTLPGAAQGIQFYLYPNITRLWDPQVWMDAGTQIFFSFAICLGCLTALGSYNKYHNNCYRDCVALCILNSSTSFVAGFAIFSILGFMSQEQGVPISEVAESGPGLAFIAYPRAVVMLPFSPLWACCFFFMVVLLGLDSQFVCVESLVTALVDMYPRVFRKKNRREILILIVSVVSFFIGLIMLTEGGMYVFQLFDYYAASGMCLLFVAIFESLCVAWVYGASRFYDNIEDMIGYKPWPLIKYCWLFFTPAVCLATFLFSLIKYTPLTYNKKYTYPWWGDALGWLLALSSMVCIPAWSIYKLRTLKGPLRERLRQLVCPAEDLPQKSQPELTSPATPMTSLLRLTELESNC

human BGT-1 = target: T2, human BGT-1 (Homo sapiens, UniProt P48065); settings: read-out: IC50, human BGT-1, inhibition of [3H]GABA uptake
T2 sequence (P48065 1-614 C10Y): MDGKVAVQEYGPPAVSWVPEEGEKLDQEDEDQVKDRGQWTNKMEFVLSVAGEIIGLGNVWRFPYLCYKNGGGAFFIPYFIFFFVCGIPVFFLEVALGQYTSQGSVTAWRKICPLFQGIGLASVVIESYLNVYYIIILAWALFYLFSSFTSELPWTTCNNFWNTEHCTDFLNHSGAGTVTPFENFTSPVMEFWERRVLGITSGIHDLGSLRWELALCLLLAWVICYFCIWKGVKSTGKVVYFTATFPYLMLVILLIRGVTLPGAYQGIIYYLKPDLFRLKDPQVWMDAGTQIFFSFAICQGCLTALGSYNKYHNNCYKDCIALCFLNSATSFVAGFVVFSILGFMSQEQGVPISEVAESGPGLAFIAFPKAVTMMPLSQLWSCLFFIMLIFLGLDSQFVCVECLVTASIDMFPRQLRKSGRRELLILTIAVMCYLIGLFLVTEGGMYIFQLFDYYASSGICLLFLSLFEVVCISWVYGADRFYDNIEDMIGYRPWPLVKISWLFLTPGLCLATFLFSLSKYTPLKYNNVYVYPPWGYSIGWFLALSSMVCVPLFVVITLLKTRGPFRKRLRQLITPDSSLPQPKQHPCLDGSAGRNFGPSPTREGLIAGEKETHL

Structure (SMILES) | IC50 (rat GAT-2) | IC50 (human BGT-1)
O=C(O)C1CCCN(CCC=C(c2ccccc2)c2ccccc2)C1 (stereo not shown) [SK&F 89976-A, N-(4,4-diphenyl-3-butenyl)-3-piperidinecarboxylic acid] | 550 ± 225 µM | –
O=C(O)[C@H]1CCCNC1 [(S)-nipecotic acid] | 763 ± 55 µM | 6410 ± 213 µM
O=C(O)[C@@H]1CCCNC1 [(R)-nipecotic acid] | 19 ± 2 µM | –
